According to PubChem BioAssay AID1508586 (ICCB-Longwood Screening Facility, Harvard Medical School, 2020):
Only a part is listed here, and it is no random draw. Calls of active or inactive are those of the source.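 The calls were made as follows: active = mean z-score across replicates of 1.96 or higher in either the MELAS or the Rieske mutant cell line; inactive = the rest.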

Test: survival rescue of mitochondrial mutant cells in low glucose, primary screen, MELAS cybrids, Rieske KO mouse fibroblasts, CellTiter-Glo (AID 1508586);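 also: test concentration not given here; z relative to plate mean and SD of compound and empty wells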
Conditions: MELAS cybrid survival, CellTiter-Glo 48 h, active compounds read high

| SMILES | z-score |
| --- | --- |
| C/C1=C2N=C(/C=C3N=C(/C(C)=C4\[N-][C@@](C)([C@@H]5N=C1[C@](C)(CCC(=O)NC[C@@H](C)OP(=O)([O-])O[C@H]1[C@@H](O)[C@@H](n6cnc7cc(C)c(C)cc76)O[C@@H]1CO)[C@H]5CC(N)=O)[C@@](C)(CC(N)=O)[C@@H]4CCC(N)=O)[C@@](C)(CC(N)=O)[C@@H]\3CCC(N)=O)C(C)(C)[C@@H]/2CCC(N)=O.[C-]#N.[Co+3] | inactive: 0.175 |
| CC1=C2[N-][C@@H](C(CC(N)=O)[C@@]2(C)CCC(=O)NCC(C)OP(=O)([O-])OC2C(CO)OC(n3cnc4cc(C)c(C)cc43)C2O)[C@]2(C)N=C(C(C)=C3N=C(C=C4N=C1C(CCC(N)=O)C4(C)C)C(CCC(N)=O)[C@]3(C)CC(N)=O)C(CCC(N)=O)[C@]2(C)CC(N)=O.[C-]#N.[Co+3] (some centres not stated) | inactive: -0.368 |
